Results from patent US6107324A, “5-HT2A receptor inverse agonists” (priority 1999, dated 2000).

Key:
[1] = test system: dopamine D2 receptor (caudate nucleus); experiment: I125-LSD displacement from rat brain sections, caudate (dopamine D2); assay type: binding, Sprague-Dawley rats; conditions: 1 micromolar compound, 1 nanomolar I125-LSD, 30 minutes room temperature
Protocol: (§1) Animals (Sprague-Dawley rats) were sacrificed and brains were rapidly dissected and frozen in isopentane maintained at -42° C. Horizontal sections were prepared on a cryostat and maintained at -20° C.
(§2) Lysergic acid diethylamide (LSD) is a potent 5HT2A receptor and dopamine D2 receptor ligand. An indication of the selectivity of compounds for either or both of these receptors involves displacement of radiolabeled-bound LSD from pre-treated brain sections. For these studies, radiolabeled I^125 -LSD (NEN Life Sciences, Boston, Mass., Catalogue number NEX-199) was utilized; spiperone (RBI, Natick, Mass. Catalogue number s-128), a 5HT2A receptor and dopamine D2 receptor antagonist, was also utilized. Buffer consisted of 50 nanomolar TRIS-HCl, pH 7.4.
(§3) Brain sections were incubated in (a) Buffer plus 1 nanomolar I^125 -LSD; (b) Buffer plus 1 nanomolar I^125 -LSD and 1 micromolar spiperone; or Buffer plus 1 nanomolar I^125 -LSD and 1 micromolar 116100 for 30 minutes at room temperature. Sections were then washed 2× 10 minutes at 4° C. in Buffer, followed by 20 seconds in distilled H2 O. Slides were then air-dried.
(§4) After drying, sections were apposed to x-ray film (Kodak Hyperfilm) and exposed for 4 days.

[2] = test system: 5HT2A receptor (cerebral cortex); experiment: I125-LSD displacement from rat brain sections, cerebral cortex (5HT2A); assay type: binding, Sprague-Dawley rats; conditions: 1 micromolar compound, 1 nanomolar I125-LSD, 30 minutes room temperature
Protocol: as §1, §2, §3, §4

SMILES: O=C(CCCN1CCC2(CC1)C(=O)NCN2c1ccccc1)c1ccc(F)cc1 [spiperone, reference compound]
- displacement of I125-LSD from caudate [1]: displaces the I^125 -LSD from these receptors on both the cortex and the caudate
- displacement of I125-LSD from cortex [2]: displaces the I^125 -LSD from these receptors on both the cortex and the caudate
